This passage reports inhibition results from PubChem BioAssay AID1663 (Broad Institute, 2009).

The entries are a selection whose mix differs from that of the whole data set. Some salts or complexes appear as unconnected parts, following the source record. Calls of active or inactive are those of the source.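 The calls were made as follows: active = mean replicate score, as percent of positive control, at or above 50; inconclusive = mean below 50 but at least one replicate at or above 50; inactive = mean and every replicate below 50.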

Broadly, the inhibition is the relative decrease from the control value, in per cent.

This assay in a line: inhibitors of platelet dense granule secretion, primary screen, cell-based, MLPCN, human platelets (AID 1663). To be noted: human platelet-rich plasma, SFLLRN dense granule ATP release, luminescence; hits give high values;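 compounds screened at 7.5 µM in platelet-rich plasma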.
Consider `O=[N+]([O-])c1cc([N+](=O)[O-])c(Nc2nnnn2CCO)c([N+](=O)[O-])c1`, for which the inhibition is inactive: 1.54%.
The figure for `CCOC(=O)C(CC)C1=NC(C)(C)Cc2ccccc21.O=[N+]([O-])c1cc([N+](=O)[O-])c(O)c([N+](=O)[O-])c1` (stereo not drawn) is inactive: -1.59%; for `CN1CCCCC1COC(=O)C1(O)c2ccccc2CCc2ccccc21` (stereo not drawn) it is inactive: -6.84%.
For the compound `COc1ccccc1OP(C)(=O)Nc1c(C)cccc1C` (stereo not drawn), the inhibition was inactive: 1.04%.
The figure for `CP(=O)(Nc1ccc(SC(F)(F)F)cc1)Oc1ccccc1` (stereo not drawn) is inactive: -4.86%; for `CCCOc1ccc(NP(C)(=O)Oc2ccc(Cl)cc2)cc1` (stereo not drawn) it is inactive: 1.41%.
Turning to `O=[N+]([O-])c1cc([N+](=O)[O-])c(-n2nnc3ccccc32)c([N+](=O)[O-])c1`, the inhibition is inactive: 0.323%.
Consider `O=[N+]([O-])c1cc([N+](=O)[O-])c(-c2cnn(-c3ccccc3)c2)c([N+](=O)[O-])c1`, for which the inhibition was inactive: -15%.
The figure for `COc1ccccc1OP(C)(=O)Nc1cccc(Br)c1` (stereo not drawn) is inactive: -4.18%; for `Cc1cc(C)cc(OP(C)(=O)Nc2ccc(C)cc2C)c1` (stereo not drawn) it is inactive: -0.699%; for `CCOC(=O)c1ccc(NP(C)(=O)Oc2cc(C)cc(C)c2)cc1` (stereo not drawn) it is inactive: -0.465%.
For `CP(=O)(Nc1cccc(Br)c1)Oc1ccccc1` (stereo not drawn) the value was inactive: 1.04%; for `Cc1cc(C)cc(OP(C)(=O)Nc2ccccn2)c1` (stereo not drawn), inactive: -7.47%; for `Cc1ccc(C)c(NP(C)(=O)Oc2ccccc2)c1` (stereo not drawn), inactive: 3.88%.
`O=C(O)c1cccc(Nc2c([N+](=O)[O-])cc([N+](=O)[O-])cc2[N+](=O)[O-])c1`: the inhibition was inactive: 0.341%.
Take `CC1=NCCc2c1[nH]c1ccccc21.O=[N+]([O-])c1cc([N+](=O)[O-])c(O)c([N+](=O)[O-])c1`: the inhibition was inactive: -3.3%.
For the compound `O=[N+]([O-])c1cc([N+](=O)[O-])c(Nc2cccnc2)c([N+](=O)[O-])c1`, the inhibition is inactive: 10.7%.
Regarding `CC(C)(C)c1ccc(OP(C)(=O)Nc2ccc(SC(F)(F)F)cc2)cc1` (stereo not drawn), the inhibition is inactive: -11.2%.
As for `Cc1cccc(C)c1OP(C)(N)=O` (stereo not drawn), the inhibition was inactive: 1.29%.
For `O=[N+]([O-])c1ccc2c(c1)C=Nc1ccccc1O2` the value was inactive: 1.91%; for `CCOC(=O)c1ccc(NP(C)(=O)Oc2ccccc2)cc1` (stereo not drawn), inactive: -0.729%.
The figure for `COc1ccccc1OP(C)(=O)Nc1ccc(C)cc1` (stereo not drawn) is inactive: -3.71%; for `Cc1ccc(NP(C)(=O)Oc2ccccc2)c(C)c1` (stereo not drawn) it is inactive: 1.9%.
As for `COc1ccccc1OP(C)(=O)Nc1cc(Cl)ccc1C` (stereo not drawn), the inhibition is inactive: -2.04%.
The figure for `COc1ccc(OP(C)(=O)Nc2cccc(F)c2)cc1` (stereo not drawn) is inactive: 15.9%.
Consider `Cc1cc(C)cc(OP(C)(N)=O)c1` (stereo not drawn), for which the inhibition is inactive: 0.782%.
The figure for `CCN(CC)CCCOC(=O)C(O)(c1ccccc1)c1ccccc1` is inactive: 5.67%.
Consider `CP(=O)(Nc1ccc(SC(F)(F)F)cc1)Oc1ccc(Cl)cc1` (stereo not drawn), for which the inhibition is inactive: 1.33%.
Consider `Cc1cccc(C)c1OP(C)(=O)Nc1ccc(SC(F)(F)F)cc1` (stereo not drawn), for which the inhibition was inactive: -2.4%.
For `CP(=O)(Oc1ccccc1)OC(c1ccccc1)C(F)(F)F` (stereo not drawn) the value was inactive: 9.42%; for `CCc1ccc(OP(C)(=O)N2CCN(c3ccc([N+](=O)[O-])cc3)CC2)cc1` (stereo not drawn), inactive: -1.25%; for `CP(=O)(NC(=O)Nc1ccccc1)Oc1ccccc1` (stereo not drawn), inactive: 1.36%.
The figure for `Cc1cc(C)cc(OP(C)(=O)Nc2ccc(SC(F)(F)F)cc2)c1` (stereo not drawn) is inactive: -0.354%; for `CCOP(C)(=S)SCC(=O)NC(C)C(=O)O` (stereo not drawn) it is inactive: 6.63%.
As to `O=[N+]([O-])c1cc([N+](=O)[O-])c(O)c([N+](=O)[O-])c1.c1ccc(Oc2ccncc2)cc1`, the inhibition is inactive: 6.34%.
As for `CCOC(=O)c1ccc(NP(C)(=O)Oc2ccc(OC)cc2)cc1` (stereo not drawn), the inhibition is inactive: 1.77%.
With `CP(=O)(Nc1ccccn1)Oc1ccc(Cl)cc1` (stereo not drawn), the inhibition is inactive: -3.33%.
Take `CP(=S)(Nn1cnnc1)Oc1ccccc1` (stereo not drawn): the inhibition is inactive: 5.63%.
The figure for `COc1ccccc1OP(C)(=O)Nc1ccccc1` (stereo not drawn) is inactive: -15.6%; for `CP(=O)(Nc1ccccc1Br)Oc1ccccc1` (stereo not drawn) it is inactive: 0.82%; for `Nc1ccc2c(ccc3cccnc32)n1.O=[N+]([O-])c1cc([N+](=O)[O-])c(O)c([N+](=O)[O-])c1` it is inactive: -5.55%.
The figure for `CP(=O)(OC12CC3CC(CC(C3)C1)C2)OC12CC3CC(CC(C3)C1)C2` is inactive: 1.09%; for `CCOC(=O)c1ccc(NP(C)(=O)Oc2ccc(Cl)cc2)cc1` (stereo not drawn) it is inactive: -5.47%.
`CCN(CC)CC(O)COC(=O)C(O)(c1ccccc1)C1CCCCC1` (stereo not drawn): the inhibition was inactive: 1.38%.
The figure for `COc1ccc(OP(C)(=O)Nc2ccc(Br)cc2)cc1` (stereo not drawn) is inactive: -1.68%; for `CP(=O)(Oc1ccccc1)N1CCOC1=O` (stereo not drawn) it is inactive: 10.9%; for `CCc1ccc(OP(C)(=O)Nc2cccnc2)cc1` (stereo not drawn) it is inactive: -27.1%.
For `COc1ccccc1OP(C)(=O)Nc1c(C)n(C)n(-c2ccccc2)c1=O` (stereo not drawn) the value was inactive: 2.77%; for `O=C(OCCCN1CCCC1)C(O)(c1ccccc1)C1CCCCC1` (stereo not drawn), inactive: 3.78%.
`CP(=O)(Nc1ccc(Cl)cc1)Oc1ccc(F)cc1` (stereo not drawn): the inhibition is inactive: -1.42%.
The figure for `CC(C)(C)c1ccc(OP(C)(=O)O)cc1` is inactive: 4.23%; for `COc1ccccc1OP(C)(=O)Nc1ccccc1Br` (stereo not drawn) it is inactive: 3.68%.
On to `CN(C)C(=O)c1c([N+](=O)[O-])cc([N+](=O)[O-])cc1[N+](=O)[O-]`, for which the inhibition was inactive: 6.06%.
For `COc1ccccc1OP(C)(=O)Nc1ccc(Br)cc1` (stereo not drawn) the value was inactive: -3.9%.
For `CN(C)CCOC(=O)C(O)(c1ccccc1)C1CCCC1` (stereo not drawn) the value was inactive: 1.12%; for `COc1ccc(OP(C)(=O)Nc2ccccn2)cc1` (stereo not drawn), inactive: -12.5%; for `O=[N+]([O-])c1cc([N+](=O)[O-])c(Nc2ccccn2)c([N+](=O)[O-])c1`, inactive: -4.58%.
The figure for `Cc1c(NP(C)(=O)Oc2ccc(C(C)C)cc2)c(=O)n(-c2ccccc2)n1C` (stereo not drawn) is inactive: 0.442%; for `CCc1ccc(OP(C)(=O)O)cc1` it is inactive: 20.8%; for `CP(=O)(Nc1ccccn1)Oc1ccccc1` (stereo not drawn) it is inactive: 0.688%.
With `COc1ccccc1OP(C)(=O)Nc1ccc(C)cc1C` (stereo not drawn), the inhibition was inactive: 8.82%.
Regarding `Cc1cc(C)cc(OP(C)(=O)Nc2cccc(C(F)(F)F)c2)c1` (stereo not drawn), the inhibition was inactive: 1.75%.
The figure for `COc1ccc(OP(C)(=O)Nc2ccccc2Br)cc1` (stereo not drawn) is inactive: -12.2%; for `COc1ccccc1OP(C)(=O)Nc1ccc(C)c(C)c1` (stereo not drawn) it is inactive: 5.3%.
The figure for `Cc1nc2ccc3ccccc3c2o1.O=[N+]([O-])c1cc([N+](=O)[O-])c(O)c([N+](=O)[O-])c1` is inactive: -6.4%.
For `CP(=O)(OCCOc1ccccc1)OCCOc1ccccc1` the value was inactive: 3.96%; for `CP(=O)(Nc1ccc(Cl)cc1Cl)Oc1ccccc1` (stereo not drawn), inactive: 0.251%.
`COc1ccc(OP(C)(=O)Nc2ccc(SC(F)(F)F)cc2)cc1` (stereo not drawn): the inhibition was inactive: -4.46%.
The figure for `CCOC(=O)c1ccc(NP(C)(=O)Oc2ccc(F)cc2)cc1` (stereo not drawn) is inactive: 8.8%; for `CCN(CC)CCCOC(=O)C(O)(c1ccccc1)C1CCCCC1` (stereo not drawn) it is inactive: 0.784%.
Consider `O=[N+]([O-])c1cc([N+](=O)[O-])c(OC2CCCCC2O)c([N+](=O)[O-])c1` (stereo not drawn), for which the inhibition was inactive: -2.14%.
As for `CCCCCOc1ccc(NP(C)(=O)Oc2ccc(Cl)cc2Cl)cc1` (stereo not drawn), the inhibition is inactive: 2.49%.
On to `CP(=O)(Nc1ccccc1)Oc1ccc(F)cc1` (stereo not drawn), for which the inhibition is inactive: 13.2%.
As for `CC(C)c1ccc(OP(C)(=O)Nc2ccc(SC(F)(F)F)cc2)cc1` (stereo not drawn), the inhibition is inactive: 19.6%.
Turning to `CP(=O)(Nc1ccccc1F)Oc1ccccc1` (stereo not drawn), the inhibition is inactive: 6.98%.
For `O=C(OCCN1CCN(CCOCc2ccccc2)CC1)C(O)(c1ccccc1)c1ccccc1` the value was inactive: -16.3%; for `O=C(OC1CN2CCC1CC2)c1ccc([N+](=O)[O-])cc1` (stereo not drawn), inactive: -8.29%; for `COc1ccc2c(c1O)-c1c(O)c(OC)cc3c1[C@H](C2)[N+](C)(C)CC3.O=[N+]([O-])c1cc([N+](=O)[O-])c([O-])c([N+](=O)[O-])c1[O-]`, inactive: -0.406%.
The figure for `CP(=O)(Nc1ccc(SC(F)(F)F)cc1)Oc1ccc(F)cc1` (stereo not drawn) is inactive: -11.7%.
For the compound `CCOP(C)(=S)SCC(=O)NC(C)(CC)C(=O)O` (stereo not drawn), the inhibition was inactive: -1.79%.
On to `CP(=O)(Nc1ccc2c(c1)OCCO2)Oc1ccccc1` (stereo not drawn), for which the inhibition was inactive: -0.484%.
Regarding `Cc1ccccc1NP(C)(=O)Nc1ccccc1C`, the inhibition was inactive: -9.39%.
The figure for `COc1ccc(OP(C)(=O)Nc2cccc(Br)c2)cc1` (stereo not drawn) is inactive: -2.42%.
With `COc1ccc(NP(C)(=O)Oc2ccccc2OC)cc1` (stereo not drawn), the inhibition is inactive: -0.16%.
For `CN(C)CCOC(=O)C(O)(c1ccccc1)C1CCCCC1` (stereo not drawn) the value was inactive: 0.466%.
For `Cc1cc(-c2cccc3ccccc23)c(C)cn1.O=[N+]([O-])c1cc([N+](=O)[O-])c(O)c([N+](=O)[O-])c1` the value was inactive: 4.35%.
For `O=[N+]([O-])c1cc([N+](=O)[O-])c(NCC2CCS(=O)(=O)C2)c([N+](=O)[O-])c1` (stereo not drawn), the inhibition is inactive: -2.98%.
The figure for `O=[N+]([O-])c1ccc(OP2(=O)COCCO2)cc1` (stereo not drawn) is inactive: 2.9%.
